# Reference: patent US20100330649A1
# What was measured:
# [1] = target: His8-cytb5R (soluble form of human cytochrome b5 reductase with N-terminal His8 tag) (human) (UniProt P00387); experiment: cell-based or functional assay
# [2] = system: His8-MBP-fl-cytb5 fusion protein
substance,measurement,setting,value
His8-MBP-fl-cytb5 fusion protein,"V/K, µM^-1 s^-1 (steady-state reduction of cytb5 by His8-cytb5R with NADH)",[1],1.7e+07 M⁻¹ s⁻¹
His8-cytb5R (soluble form of human cytochrome b5 reductase with N-terminal His8 tag),"Km, µM (steady-state reduction of cytb5 by His8-cytb5R with NADH)",[2],5 µM
same,"Vmax, s^-1 (steady-state reduction of cytb5 by His8-cytb5R with NADH, absorbance at 413 nm)",[2],84 s⁻¹
same,apparent Vmax relative to His8-cytb5-sd,[2],the His8-MBP-fl-cytb5 had an apparent Vmax that was ˜3-fold higher than that of His8-cytb5-sd
